Data as given in US10017767B2, “Targets in multiple myeloma and other disorders” (FONDAZIONE CENTRO SAN RAFFAELE, priority 2012, dated 2018).

Chains of the proteins cited; added tags and fusions are not shown.
UniProt Q13043, whole entry: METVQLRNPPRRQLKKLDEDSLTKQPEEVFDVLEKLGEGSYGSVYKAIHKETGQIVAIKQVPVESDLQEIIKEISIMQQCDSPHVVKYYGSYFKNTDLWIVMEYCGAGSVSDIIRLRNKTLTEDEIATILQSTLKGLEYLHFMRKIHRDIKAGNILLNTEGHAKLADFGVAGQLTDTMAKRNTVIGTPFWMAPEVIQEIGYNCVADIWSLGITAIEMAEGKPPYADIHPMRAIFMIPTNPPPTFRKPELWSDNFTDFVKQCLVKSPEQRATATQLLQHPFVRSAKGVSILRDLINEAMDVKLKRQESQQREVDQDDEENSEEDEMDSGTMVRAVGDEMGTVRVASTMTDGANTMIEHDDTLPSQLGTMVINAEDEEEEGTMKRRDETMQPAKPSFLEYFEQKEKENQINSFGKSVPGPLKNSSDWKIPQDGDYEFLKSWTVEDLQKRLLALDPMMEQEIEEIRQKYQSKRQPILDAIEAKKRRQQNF

Legend:
MM cell lines = assay: Cell growth in a large panel of MM cell lines; format: cell-based
[1] = system: KMS-20 cell line, with YAP1 deletion; assay: Cell growth in YAP1-deleted KMS-20; format: cell-based; details: KMS-20, YAP1 deleted
YAP1 = YAP1 levels in MM cells after treatment
STK4 = STK4 (Homo sapiens, UniProt Q13043); assay: STK4 biochemical kinase inhibition; details: read-out: biochemical IC50 for STK4

Question: How did the “effect on cell growth / proliferation in MM cell lines” value (MM cell lines) turn out when `CN(C1CC1)S(=O)(=O)c1ccc(-c2cnc(N)c(-c3ccc4c(c3)CCNC4=O)c2)cc1` was run?
Answer: reduced cell growth and induced apoptosis in MM cell lines

Question: What about the “activity against KMS-20” value [1] of the same molecule?
Answer: not sensitive

Question: What about the “YAP1 levels after treatment” value (YAP1) of the same molecule?
Answer: YAP1 expression was induced

Question: What about the IC50 (STK4) of the same molecule?
Answer: 8 nM
